{
  "source": "patent US9309314B2",
  "about": "“Polypeptides, nucleic acids and uses thereof” (AGENCY FOR SCIENCE, TECHNOLOGY AND RESEARCH (A*STAR), priority 2013, dated 2016)",
  "system": "hESCs",
  "assay": "hESC growth assays (cell counts, colony size, xCELLigence real time cell index)",
  "assay_type": "cell-based, human",
  "experimental": "Feeder-free hESCs were cultured in clumps in mTSER1 (Stem Cell Technologies) on Matrigel (BD 354277).\nhESCs were dissociated into single cells using Accutase (Stem Cell Technologies) and plated in the presence of 10 μM Y-27632 (ROCK inhibitor) for 12 hours (Watanabe et al., 2007).\nFor xCELLigence real time growth assays, 4000 cells were plated per well of an E-plate (ACEA Biosciences) with media changes every 48 hours.\nRecombinant ELA was added at 2.5 uM (or 10 μg/ml). Cell cycle studies were performed with Click-iT EDU staining kit (Invitrogen) and by performing a double thymidine block (2.5 mM thymidine; 16 hour block, 8 hour release, 16 hour block) followed by DAPI staining for DNA content at the indicated times following release.",
  "note": "Entries after “also recorded” stand apart in the source; their conditions may differ.",
  "data": [
    {"sequence": "QRPVNLTMRRKLRKHNCLQRRCMPLHSRVPFP (listed as Homo sapiens) [ELA, synthetically produced recombinant mature human ELABELA, a 32 amino-acid peptide hormone]", "values": [
      {"measurement": "growth of hESCs by real-time cell index analysis", "setting": "FIG. 3E, FIG. 11A, exogenous peptide", "result": "increased growth; also recorded: Dose-dependent response"},
      {"measurement": "growth of hESCs relative to untreated cells", "setting": "hESCs pulsed with peptide, documented by cell counts, colony size and real-time cell indices", "result": "dose-dependent enhanced growth"}
    ]}
  ]
}
